Test results reported in ChEMBL document CHEMBL5518202, “Discovery of a Potent Nicotinamide Phosphoribosyltransferase Activator for Improving Aging-associated Dysfunctions” (J Med Chem, 2024).

What was measured:
HUVEC = assay: Cytotoxicity against HUVEC cells assessed as reduction in cell viability at 0.0391 to 10 uM incubated for 72 hrs in presence of FK866 by CCK-8 assay; type: toxicity, cell-based; conditions: human, dose 0.0391-10 µM
[1] = Toxicity in wild type Caenorhabditis elegans N2 at 100 uM by microscopic analysis

Structure (SMILES): O=C(NCc1ccncc1)Nc1ccc(S(=O)(=O)NCc2cc(F)ccc2F)cc1
- Activity (HUVEC): Non-Toxic
- Activity [1]: Non-Toxic
